Laboratory results reported in patent publication US11040107B2, “Dosing regimens and related compositions and methods” (Apellis Pharmaceuticals, Inc., priority 2017, dated 2021).

Assays:
[1] = test system: PNH RBCs; experiment: Modified Ham's assay, comparison with Soliris; format: cell-based, human
Experimental: Flow cytometry was performed after antibody staining using antibodies against CD59 and C3d. In this figure, quadrant 1 (Q1) and quadrant 3 (Q3) represent Type III cells. Quadrant 2 (Q2) and quadrant 4 (Q4) represent Types I and II cells. Q1 and Q2 represent cells with a significant and abnormally high amount of C3 activation product (e.g., C3d) deposition. Q3 and Q4 represent cells without significant C3d deposition or somewhat elevated level (right portion of Q4) but less so than Q2 cells.

[2] = test system: rabbit erythrocytes; conditions: serum from PNH patients; Hillmen 2004; cited from earlier work

Eculizumab: humanized anti-C5 monoclonal antibody [reference compound]
deposition of C3d on PNH RBCs [1]: significant deposition of C3 activation products
inhibition of ex vivo serum-induced hemolysis shown to be of considerable benefit in PNH [2]: 80%
